Laboratory results from patent US20170190774A1.

Target: human FSH receptor expressed on HEK 293 cells (human) (UniProt P23945)
Assay: cell-based or functional assay

EC50 of oFSH alone, cAMP (GloSensor), HEK 293 cells with the human FSH receptor: 2.36 nM
Substance: ovine FSH (oFSH) (from UniProt P01218 25-120; P01227 20-129) (ligand)
